Experiments:
D(2) dopamine receptor = D(2) dopamine receptor (Rattus norvegicus, UniProt P61169); experiment: The binding affinity at the Dopamine receptor D2 determined using [3H]spiperone
[1] = biological target: 5-hydroxytryptamine receptor 2A (Rattus norvegicus, UniProt P14842); experiment: The binding affinity at 5-hydroxytryptamine 2A receptor was determined using [3H]ketanserin

Protein sequences, listed by entry. Tags and fused reporters are not part of them.
UniProt P61169, whole entry: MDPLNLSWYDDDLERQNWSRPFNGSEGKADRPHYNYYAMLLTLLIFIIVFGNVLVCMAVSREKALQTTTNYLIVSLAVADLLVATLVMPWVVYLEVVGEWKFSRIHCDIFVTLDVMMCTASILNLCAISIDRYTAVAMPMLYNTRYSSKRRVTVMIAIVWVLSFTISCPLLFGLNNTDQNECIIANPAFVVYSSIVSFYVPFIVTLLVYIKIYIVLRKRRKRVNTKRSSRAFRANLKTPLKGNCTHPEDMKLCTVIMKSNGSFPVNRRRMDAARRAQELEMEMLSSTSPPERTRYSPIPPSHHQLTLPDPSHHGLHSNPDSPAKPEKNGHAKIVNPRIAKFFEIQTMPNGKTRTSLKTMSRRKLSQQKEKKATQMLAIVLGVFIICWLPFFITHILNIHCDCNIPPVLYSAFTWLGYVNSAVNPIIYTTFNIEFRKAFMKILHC
UniProt P14842, whole entry: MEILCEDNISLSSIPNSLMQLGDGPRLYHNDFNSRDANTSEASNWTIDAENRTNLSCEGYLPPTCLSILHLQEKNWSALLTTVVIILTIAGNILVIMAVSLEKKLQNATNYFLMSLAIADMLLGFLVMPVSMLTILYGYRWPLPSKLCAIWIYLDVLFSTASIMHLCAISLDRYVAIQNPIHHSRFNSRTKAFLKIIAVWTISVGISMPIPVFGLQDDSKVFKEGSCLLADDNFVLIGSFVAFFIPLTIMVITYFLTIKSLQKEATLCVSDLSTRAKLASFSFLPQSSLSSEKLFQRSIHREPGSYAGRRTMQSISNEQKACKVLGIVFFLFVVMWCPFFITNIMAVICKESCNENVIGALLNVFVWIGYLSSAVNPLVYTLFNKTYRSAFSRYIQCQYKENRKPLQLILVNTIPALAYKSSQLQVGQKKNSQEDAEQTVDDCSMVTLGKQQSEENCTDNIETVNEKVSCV

## CN1CCN2c3ccccc3Cc3ccccc3C2C1 (racemic) [MIANSERIN]
D(2) dopamine receptor
  Ki: 1000 nM

## CN1CCN2c3ncccc3Cc3ccccc3C2C1 (racemic) [MIRTAZAPINE]
[1]
  IC50: 2 nM
